Values of other authors, collected in patent US20090270306A1, “Glass Storage” (priority 2005, published 2009).

Details: initial pKa, buffers tested for stain inhibitor performance (Table 1); cited from earlier work

## Zinc Sulphate
  pKa: 7.7
